From patent publication US20080064053A1, “Genotoxicity Testing” (priority 2003, published 2008)

Tested on: RAD54 promoter-GFP reporter (pGen001)

In the case of tritolyl phosphate, the GSA genotoxicity result is reported as “positive”.
